Results as given in patent US20220142941A1, “COMBINATION THERAPEUTIC REGIMENS WITH 1,6-DIBROMO-1,6-DIDEOXY-DULCITOL” (Eleison Pharmaceuticals LLC, priority 2019, published 2022).

How the values were obtained:
Assay in all cases: DBD combination treatment, viability enhancement factor
Type in all cases: cell-based, human
[1] = tested on: GS184NS;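 note: DBD at its own IC50 and half IC50 determined at Day 5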
Method: (§1) Crystalline DBD polymorph treatment was combined with chemotherapy, radiotherapy and targeted inhibitors to determine whether the crystalline DBD polymorph form could: enhance efficacy of the conventional therapies; enhance efficacy when combined with newer ‘targeted’ therapies; or would make (a subset of) cultures more sensitive to this treatment.
(§2) Therefore, cultures were treated with: • a.

[2] = tested on: GS257NS;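 note: DBD at its own IC50 and half IC50 determined at Day 5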
Method: as §1, §2

[3] = tested on: GS224NS
Method: as §1, §2

[4] = tested on: GS279coreNS
Method: as §1, §2

[5] = tested on: GS359NS
Method: as §1, §2

[6] = tested on: GS289NS;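 note: DBD at its own IC50 and half IC50 determined at Day 5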
Method: as §1, §2

[7] = tested on: GS186periNS
Method: as §1, §2

[8] = tested on: GS249NS
Method: as §1, §2

[9] = tested on: GS245NS
Method: as §1, §2

[10] = tested on: GS102periNS
Method: as §1, §2

[11] = tested on: GS323periNS
Method: as §1, §2

[12] = tested on: GS324coreNS
Method: as §1, §2

[13] = tested on: GS261NS
Method: as §1, §2

[14] = tested on: GS279periNS;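 note: DBD at its own IC50 and half IC50 determined at Day 5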
Method: as §1, §2

[15] = tested on: GS281NS
Method: as §1, §2

[16] = tested on: GS365NS
Method: as §1, §2

[17] = tested on: GS104periNS
Method: as §1, §2

`CC(C)C[C@H](NC(=O)[C@H](Cc1ccccc1)NC(=O)c1cnccn1)B(O)O` [Bortezomib] was tested, and the “enhancement factor (viability % of most effective monotherapy divided by viability % of combination)” value [1] was 0.542 and 0.639, the “enhancement factor (viability % of most effective monotherapy divided by viability % of combination)” value [2] was 0.970 and 0.978 and the “enhancement factor (viability % of most effective monotherapy divided by viability % of combination)” value [3] was 0.954 and 1.011. The “enhancement factor (viability % of most effective monotherapy divided by viability % of combination)” value [4] was 2.252, the “enhancement factor (viability % of most effective monotherapy divided by viability % of combination)” value [5] was 1.940 and 2.420 and the “enhancement factor (viability % of most effective monotherapy divided by viability % of combination)” value [6] was 0.870 and 1.664. For the same molecule, the “enhancement factor (viability % of most effective monotherapy divided by viability % of combination)” value [7] was 2.614, the “enhancement factor (viability % of most effective monotherapy divided by viability % of combination)” value [8] was 1.013 and 0.952 and the “enhancement factor (viability % of most effective monotherapy divided by viability % of combination)” value [9] was 1.043. The “enhancement factor (viability % of most effective monotherapy divided by viability % of combination)” value [10] was 1.481 and 1.518, the “enhancement factor (viability % of most effective monotherapy divided by viability % of combination)” value [11] was 1.060 and the “enhancement factor (viability % of most effective monotherapy divided by viability % of combination)” value [12] was 0.962 and 1.028. The “enhancement factor (viability % of most effective monotherapy divided by viability % of combination)” value [13] was 1.567 and 1.676, the “enhancement factor (viability % of most effective monotherapy divided by viability % of combination)” value [14] was 1.265 and 0.961 and the “enhancement factor (viability % of most effective monotherapy divided by viability % of combination)” value [15] was 0.826 and 0.892. The “enhancement factor (viability % of most effective monotherapy divided by viability % of combination)” value [16] was 0.919 and 0.939 and the “enhancement factor (viability % of most effective monotherapy divided by viability % of combination)” value [17] was 0.984 and 1.374.

Several values for one entry are separate records, joined by “and”; a condition that tells them apart may be missing. Equal entries are not always repeated.
